{"source": "ChEMBL document CHEMBL1123524", "about": "“Aminoglycoside antibiotics. 6. Chemical reactions of aminoglycosides with disodium carbenicillin” (1986)", "format_in_all_cases": "functional", "key": {"[1]": {"test_system": "Enterobacter cloacae", "assay": "Antibacterial activity expressed as MIC value was determined on Enterobacter cloacae A-21136 organism"}, "[2]": {"test_system": "Pseudomonas aeruginosa", "assay": "Antibacterial activity expressed as MIC value was determined on Pseudomonas aeruginosa A-21508 organism"}, "[3]": {"test_system": "Pseudomonas aeruginosa", "assay": "Antibacterial activity expressed as MIC value was determined on Pseudomonas aeruginosa A-20653 organism"}, "[4]": {"test_system": "Escherichia coli", "assay": "Antibacterial activity expressed as MIC value was determined on Escherichia coli A-22356 organism"}, "[5]": {"test_system": "Enterobacter cloacae", "assay": "Antibacterial activity expressed as MIC value was determined on Enterobacter cloacae A-9656 organism"}, "[6]": {"test_system": "Enterobacter cloacae", "assay": "Antibacterial activity expressed as MIC value was determined on Enterobacter cloacae A-21006 organism"}, "[7]": {"test_system": "Escherichia coli", "assay": "Antibacterial activity expressed as MIC value was determined on Escherichia coli A-20665 organism"}, "[8]": {"test_system": "Enterobacter cloacae", "assay": "Antibacterial activity expressed as MIC value was determined on Enterobacter cloacae A-20364 organism"}}}
{"sequence": "GENTAMICIN", "values": [{"measurement": "MIC", "setting": "[1]", "result": 2, "unit": "µg/mL"}, {"measurement": "MIC", "setting": "[2]", "result": 0.5, "unit": "µg/mL"}, {"measurement": "MIC", "setting": "[3]", "result": 0.5, "unit": "µg/mL"}, {"measurement": "MIC", "setting": "[4]", "result": 0.5, "unit": "µg/mL"}, {"measurement": "MIC", "setting": "[5]", "result": 0.5, "unit": "µg/mL"}, {"measurement": "MIC", "setting": "[6]", "result": 0.5, "unit": "µg/mL"}, {"measurement": "MIC", "setting": "[7]", "result": 0.5, "unit": "µg/mL"}, {"measurement": "MIC", "setting": "[8]", "result": 0.5, "unit": "µg/mL"}]}
